The results in this text go back to patent publication US20260240847A1, “COMPOUNDS WITH ANTI-TUMOR ACTIVITY AGAINST CANCER CELLS BEARING TYROSINE KINASE INHIBITOR RESISTANT EGFR MUTATIONS” (BOARD OF REGENTS, THE UNIVERSITY OF TEXAS SYSTEM, priority 2019, published 2026).

The chains behind the UniProt entries cited, without tags or fusion partners. A line that says so, or that is headed by a name, gives the form on record, which may keep a tag or linker. Residues count along the entry.
UniProt P00533, 25-1210 L718Q/T790M/L858R: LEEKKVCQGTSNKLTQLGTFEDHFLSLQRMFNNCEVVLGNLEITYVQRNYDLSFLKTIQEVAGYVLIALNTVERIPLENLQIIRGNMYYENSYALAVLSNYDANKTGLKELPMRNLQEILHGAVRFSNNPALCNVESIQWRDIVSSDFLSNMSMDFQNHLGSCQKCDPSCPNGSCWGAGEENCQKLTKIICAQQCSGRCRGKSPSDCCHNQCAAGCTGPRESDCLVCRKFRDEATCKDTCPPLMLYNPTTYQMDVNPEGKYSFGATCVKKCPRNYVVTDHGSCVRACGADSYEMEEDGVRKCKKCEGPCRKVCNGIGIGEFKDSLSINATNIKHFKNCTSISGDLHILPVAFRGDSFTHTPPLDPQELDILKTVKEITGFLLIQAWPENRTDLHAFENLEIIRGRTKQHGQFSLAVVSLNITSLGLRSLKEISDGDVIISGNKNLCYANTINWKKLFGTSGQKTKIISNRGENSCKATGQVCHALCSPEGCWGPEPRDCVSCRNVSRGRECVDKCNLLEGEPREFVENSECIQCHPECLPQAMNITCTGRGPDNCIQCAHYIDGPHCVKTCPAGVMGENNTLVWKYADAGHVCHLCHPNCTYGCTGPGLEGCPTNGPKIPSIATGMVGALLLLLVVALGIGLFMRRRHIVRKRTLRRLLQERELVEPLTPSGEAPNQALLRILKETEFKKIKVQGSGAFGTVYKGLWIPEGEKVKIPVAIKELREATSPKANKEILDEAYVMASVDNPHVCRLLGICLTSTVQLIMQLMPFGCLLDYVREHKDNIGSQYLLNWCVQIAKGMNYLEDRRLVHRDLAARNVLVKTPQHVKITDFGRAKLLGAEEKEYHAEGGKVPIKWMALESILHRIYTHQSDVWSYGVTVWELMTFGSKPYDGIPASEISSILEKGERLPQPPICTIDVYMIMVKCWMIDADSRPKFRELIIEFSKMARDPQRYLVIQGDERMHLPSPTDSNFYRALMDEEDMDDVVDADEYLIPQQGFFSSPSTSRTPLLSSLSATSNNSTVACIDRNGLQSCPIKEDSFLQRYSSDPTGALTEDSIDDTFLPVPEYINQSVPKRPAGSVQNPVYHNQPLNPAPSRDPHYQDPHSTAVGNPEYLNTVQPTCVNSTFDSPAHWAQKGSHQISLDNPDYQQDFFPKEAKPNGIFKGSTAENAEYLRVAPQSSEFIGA
UniProt P00533, 25-1210 L747P: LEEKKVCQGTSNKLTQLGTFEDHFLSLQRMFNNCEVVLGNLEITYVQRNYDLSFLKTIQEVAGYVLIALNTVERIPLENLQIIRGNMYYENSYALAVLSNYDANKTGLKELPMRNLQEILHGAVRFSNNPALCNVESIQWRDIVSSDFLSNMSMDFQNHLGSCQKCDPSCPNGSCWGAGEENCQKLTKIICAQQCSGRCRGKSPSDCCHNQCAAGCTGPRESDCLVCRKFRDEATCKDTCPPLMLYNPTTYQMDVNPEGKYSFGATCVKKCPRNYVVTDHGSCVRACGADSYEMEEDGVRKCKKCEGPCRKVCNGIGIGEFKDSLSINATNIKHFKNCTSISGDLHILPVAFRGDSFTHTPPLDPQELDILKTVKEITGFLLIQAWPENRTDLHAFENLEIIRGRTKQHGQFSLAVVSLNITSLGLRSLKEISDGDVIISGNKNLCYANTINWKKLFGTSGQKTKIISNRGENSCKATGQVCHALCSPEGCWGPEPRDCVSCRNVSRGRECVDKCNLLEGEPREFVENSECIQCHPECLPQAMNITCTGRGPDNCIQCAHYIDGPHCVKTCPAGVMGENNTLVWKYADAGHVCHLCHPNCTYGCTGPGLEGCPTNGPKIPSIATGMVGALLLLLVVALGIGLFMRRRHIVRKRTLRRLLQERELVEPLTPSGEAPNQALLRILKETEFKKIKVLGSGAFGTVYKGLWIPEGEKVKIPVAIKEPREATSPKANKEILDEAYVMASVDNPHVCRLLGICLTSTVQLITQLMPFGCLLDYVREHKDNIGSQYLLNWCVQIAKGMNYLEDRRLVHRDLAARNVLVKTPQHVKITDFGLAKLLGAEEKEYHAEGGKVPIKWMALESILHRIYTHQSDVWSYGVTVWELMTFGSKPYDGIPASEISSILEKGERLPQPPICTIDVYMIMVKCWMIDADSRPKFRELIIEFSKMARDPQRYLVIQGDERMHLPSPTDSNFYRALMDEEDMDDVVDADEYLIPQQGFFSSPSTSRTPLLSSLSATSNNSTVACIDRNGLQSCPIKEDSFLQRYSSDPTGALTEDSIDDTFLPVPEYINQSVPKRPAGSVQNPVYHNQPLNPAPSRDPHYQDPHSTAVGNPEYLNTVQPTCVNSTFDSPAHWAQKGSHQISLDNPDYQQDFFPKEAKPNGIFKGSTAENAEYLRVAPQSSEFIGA
UniProt P00533, 25-1210 L718V/T790M/L858R: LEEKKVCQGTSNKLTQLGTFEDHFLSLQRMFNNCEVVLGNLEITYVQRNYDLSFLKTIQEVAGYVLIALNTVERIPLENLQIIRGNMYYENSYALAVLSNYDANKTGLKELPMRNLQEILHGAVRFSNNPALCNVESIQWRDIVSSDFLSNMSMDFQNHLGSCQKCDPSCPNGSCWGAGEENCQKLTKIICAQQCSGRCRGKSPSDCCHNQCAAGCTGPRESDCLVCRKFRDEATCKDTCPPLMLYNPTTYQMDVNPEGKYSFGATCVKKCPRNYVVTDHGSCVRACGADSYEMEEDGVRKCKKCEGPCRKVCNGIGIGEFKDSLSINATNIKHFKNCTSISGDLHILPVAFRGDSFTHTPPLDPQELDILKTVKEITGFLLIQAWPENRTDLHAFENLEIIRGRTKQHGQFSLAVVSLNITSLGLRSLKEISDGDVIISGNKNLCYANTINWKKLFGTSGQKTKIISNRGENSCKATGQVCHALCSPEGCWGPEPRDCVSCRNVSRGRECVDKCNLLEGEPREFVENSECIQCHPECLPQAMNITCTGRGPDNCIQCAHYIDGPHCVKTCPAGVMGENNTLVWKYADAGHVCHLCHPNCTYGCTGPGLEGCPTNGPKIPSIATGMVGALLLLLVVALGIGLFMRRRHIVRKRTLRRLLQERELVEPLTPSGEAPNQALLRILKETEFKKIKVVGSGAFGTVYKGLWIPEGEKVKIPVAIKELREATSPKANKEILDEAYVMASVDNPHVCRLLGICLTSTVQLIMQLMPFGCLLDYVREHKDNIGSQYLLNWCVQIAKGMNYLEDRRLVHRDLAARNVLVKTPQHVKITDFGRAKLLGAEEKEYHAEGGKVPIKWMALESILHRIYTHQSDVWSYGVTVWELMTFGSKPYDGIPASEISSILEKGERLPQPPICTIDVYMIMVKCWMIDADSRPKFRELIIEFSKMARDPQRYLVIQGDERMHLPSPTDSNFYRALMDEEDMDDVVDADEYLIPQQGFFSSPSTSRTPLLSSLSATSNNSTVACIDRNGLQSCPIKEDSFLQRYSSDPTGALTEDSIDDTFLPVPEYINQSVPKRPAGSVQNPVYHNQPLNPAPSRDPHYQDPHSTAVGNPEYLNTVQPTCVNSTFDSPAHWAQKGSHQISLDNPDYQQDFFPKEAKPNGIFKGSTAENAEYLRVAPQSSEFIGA
UniProt P00533, with tags, fused parts or gaps G724S/DUP771-771: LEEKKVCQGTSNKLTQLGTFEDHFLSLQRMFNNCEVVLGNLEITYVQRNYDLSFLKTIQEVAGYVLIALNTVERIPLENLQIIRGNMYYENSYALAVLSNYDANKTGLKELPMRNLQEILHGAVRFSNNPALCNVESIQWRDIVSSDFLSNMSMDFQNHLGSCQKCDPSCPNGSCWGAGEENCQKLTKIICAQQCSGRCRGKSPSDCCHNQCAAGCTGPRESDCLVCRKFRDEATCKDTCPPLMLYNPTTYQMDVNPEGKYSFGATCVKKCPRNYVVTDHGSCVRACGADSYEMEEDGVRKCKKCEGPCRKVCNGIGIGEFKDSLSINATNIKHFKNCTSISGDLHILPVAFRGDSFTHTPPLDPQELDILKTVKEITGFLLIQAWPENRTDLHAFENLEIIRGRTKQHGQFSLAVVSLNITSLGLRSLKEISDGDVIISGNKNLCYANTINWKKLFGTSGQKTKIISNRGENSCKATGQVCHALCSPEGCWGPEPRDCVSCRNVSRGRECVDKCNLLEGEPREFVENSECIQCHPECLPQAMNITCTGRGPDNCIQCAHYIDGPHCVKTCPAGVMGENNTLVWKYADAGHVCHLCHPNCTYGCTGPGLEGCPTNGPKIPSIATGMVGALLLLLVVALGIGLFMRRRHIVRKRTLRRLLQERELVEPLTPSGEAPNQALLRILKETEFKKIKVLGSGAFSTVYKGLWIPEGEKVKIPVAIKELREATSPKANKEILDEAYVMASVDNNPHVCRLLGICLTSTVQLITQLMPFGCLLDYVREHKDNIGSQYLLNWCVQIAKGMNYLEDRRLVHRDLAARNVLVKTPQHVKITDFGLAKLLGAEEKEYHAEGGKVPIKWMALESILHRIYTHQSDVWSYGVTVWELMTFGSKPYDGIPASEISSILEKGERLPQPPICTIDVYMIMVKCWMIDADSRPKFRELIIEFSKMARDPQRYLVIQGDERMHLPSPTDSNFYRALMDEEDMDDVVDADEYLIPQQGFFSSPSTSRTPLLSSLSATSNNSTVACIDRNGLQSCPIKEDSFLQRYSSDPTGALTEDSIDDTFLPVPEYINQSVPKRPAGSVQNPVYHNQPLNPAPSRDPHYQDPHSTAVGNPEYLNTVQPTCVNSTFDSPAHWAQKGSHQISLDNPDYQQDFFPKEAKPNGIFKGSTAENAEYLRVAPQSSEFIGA
UniProt P00533, with tags, fused parts or gaps G724S/DEL746-750/T790M: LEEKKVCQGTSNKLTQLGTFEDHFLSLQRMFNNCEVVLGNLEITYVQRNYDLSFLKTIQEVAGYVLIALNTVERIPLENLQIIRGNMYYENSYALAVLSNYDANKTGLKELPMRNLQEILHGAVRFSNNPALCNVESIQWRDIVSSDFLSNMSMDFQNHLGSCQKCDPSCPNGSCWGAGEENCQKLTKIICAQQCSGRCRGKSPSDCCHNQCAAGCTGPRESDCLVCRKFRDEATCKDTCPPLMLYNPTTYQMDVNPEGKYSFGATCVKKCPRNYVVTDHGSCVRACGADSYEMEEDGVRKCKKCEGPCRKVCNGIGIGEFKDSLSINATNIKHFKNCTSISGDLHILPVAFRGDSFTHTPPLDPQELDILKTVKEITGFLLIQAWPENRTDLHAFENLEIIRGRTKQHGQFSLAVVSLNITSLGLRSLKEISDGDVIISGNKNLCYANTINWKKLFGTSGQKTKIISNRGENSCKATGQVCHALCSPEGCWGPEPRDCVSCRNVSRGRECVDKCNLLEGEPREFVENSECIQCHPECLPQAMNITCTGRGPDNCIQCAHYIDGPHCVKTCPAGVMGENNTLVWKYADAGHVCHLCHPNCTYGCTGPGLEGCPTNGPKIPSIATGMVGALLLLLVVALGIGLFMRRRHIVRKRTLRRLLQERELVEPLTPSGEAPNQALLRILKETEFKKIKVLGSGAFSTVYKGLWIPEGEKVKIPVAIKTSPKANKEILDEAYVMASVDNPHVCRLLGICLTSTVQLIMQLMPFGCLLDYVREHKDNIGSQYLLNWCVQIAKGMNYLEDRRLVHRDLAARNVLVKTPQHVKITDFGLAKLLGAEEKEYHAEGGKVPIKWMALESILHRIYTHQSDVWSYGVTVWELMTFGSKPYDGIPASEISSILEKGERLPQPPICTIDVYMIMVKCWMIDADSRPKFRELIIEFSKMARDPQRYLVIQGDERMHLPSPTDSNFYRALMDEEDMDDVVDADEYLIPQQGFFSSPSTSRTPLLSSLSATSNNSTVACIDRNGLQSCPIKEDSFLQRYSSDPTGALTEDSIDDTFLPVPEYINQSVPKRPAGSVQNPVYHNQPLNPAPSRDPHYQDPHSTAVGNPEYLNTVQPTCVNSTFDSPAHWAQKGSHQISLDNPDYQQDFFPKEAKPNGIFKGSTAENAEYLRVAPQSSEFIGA

Common to all, as to experiment: Ba/F3 cell viability, Cell Titer Glo
The target of one assay is EGFR L858R/T790M/L718Q (Homo sapiens, UniProt P00533, L718Q/L858R/T790M). As to conditions: read-out: IC50 Values; Ba/F3 cells expressing EGFR L858R/T790M/L718Q, 72 hours.
Another assay addresses EGFR L747P (Homo sapiens, UniProt P00533, L747P). As to conditions: read-out: IC50 Values; Ba/F3 cells expressing EGFR L747P, 72 hours.
Another assay addresses EGFR L858R T790M L718V (Homo sapiens, UniProt P00533, L718V/L858R/T790M). The conditions noted are these: read-out: IC50 Values; Ba/F3 cells expressing EGFR L858R T790M L718V, 72 hours.
A further assay deals with EGFR N771dupN G724S (Homo sapiens, UniProt P00533, DUP771-771/G724S). As to conditions: read-out: IC50 Values; Ba/F3 cells expressing EGFR N771dupN G724S, 72 hours.
The target in a further assay is EGFR Ex19del/T790M/G724S (Homo sapiens, UniProt P00533, DEL746-750/G724S/T790M). As to conditions: read-out: IC50 Values; Ba/F3 cells expressing EGFR Ex19del/T790M/G724S, 72 hours.
The next assay has as its target EGFR Ex19del/C797S (Homo sapiens, UniProt P00533, C797S/DEL746-750). As to conditions: read-out: IC50 Values; Ba/F3 cells expressing EGFR Ex19del/C797S, 72 hours.
In a further assay the target is EGFR l740duplPVAK (Homo sapiens, UniProt P00533, DUP740-745). The conditions noted are these: read-out: IC50 Values; Ba/F3 cells expressing EGFR l740duplPVAK, 72 hours.
A further assay addresses EGFR L747S (Homo sapiens, UniProt P00533, L747S). As to conditions: read-out: IC50 Values; Ba/F3 cells expressing EGFR L747S, 72 hours.
In another assay the target is EGFR R776H (Homo sapiens, UniProt P00533, R776H). The conditions noted are these: read-out: IC50 Values; Ba/F3 cells expressing EGFR R776H, 72 hours.
A further assay deals with EGFR S768I/V769L (Homo sapiens, UniProt P00533, S768I/V769L). As to conditions: read-out: IC50 Values; Ba/F3 cells expressing EGFR S768I/V769L, 72 hours.
In another assay the target is EGFR S768dupSVD (Homo sapiens, UniProt P00533, DUP768-770). The conditions noted are these: read-out: IC50 Values; Ba/F3 cells expressing EGFR S768dupSVD, 72 hours.
The target in a further assay is EGFR T725M (Homo sapiens, UniProt P00533, T725M). As to conditions: read-out: IC50 Values; Ba/F3 cells expressing EGFR T725M, 72 hours.
Another assay addresses EGFR S768I V774M (Homo sapiens, UniProt P00533, S768I/V774M). The conditions noted are these: read-out: IC50 Values; Ba/F3 cells expressing EGFR S768I V774M, 72 hours.
The target of a further assay is EGFR L858R T790M V843I (Homo sapiens, UniProt P00533, L858R/T790M/V843I). As to conditions: read-out: IC50 Values; Ba/F3 cells expressing EGFR L858R T790M V843I, 72 hours.
The target of another assay is EGFR L858R/L792H (Homo sapiens, UniProt P00533, L792H/L858R). The conditions noted are these: read-out: IC50 Values; Ba/F3 cells expressing EGFR L858R/L792H, 72 hours.
The target in another assay is EGFR Ex19delT790M L718V (Homo sapiens, UniProt P00533, DEL746-750/L718V/T790M). As to conditions: read-out: IC50 Values; Ba/F3 cells expressing EGFR Ex19delT790M L718V, 72 hours.
Another assay deals with EGFR V774M (Homo sapiens, UniProt P00533, V774M). As to conditions: read-out: IC50 Values; Ba/F3 cells expressing EGFR V774M, 72 hours.
In another assay the target is EGFR L858R G724S (Homo sapiens, UniProt P00533, G724S/L858R). The conditions noted are these: read-out: IC50 Values; Ba/F3 cells expressing EGFR L858R G724S, 72 hours.
In another assay the target is EGFR Ex19del/T790M/L792H (Homo sapiens, UniProt P00533, DEL746-750/L792H/T790M). As to conditions: read-out: IC50 Values; Ba/F3 cells expressing EGFR Ex19del/T790M/L792H, 72 hours.

For the compound `Cc1cc(C(=O)Nc2nc3cccc(Cl)c3n2[C@@H]2CCCCN(C(=O)/C=C/CN(C)C)C2)ccn1`, the IC50 stood at 1000 nM at EGFR L858R/T790M/L718Q; 288 nM on EGFR L747P; 336 nM on EGFR L858R T790M L718V; 439 nM at EGFR N771dupN G724S; 79.3 nM on EGFR Ex19del/T790M/G724S; 3980 nM on EGFR Ex19del/C797S. Also, the concentration for half-maximal inhibition (IC50) was found to be 75.4 nM at EGFR l740duplPVAK; 81.7 nM on EGFR L747S; 46.7 nM at EGFR R776H; 292 nM at EGFR S768I/V769L; 520 nM on EGFR S768dupSVD; 58.9 nM at EGFR T725M. Also, the half-maximal inhibitory concentration (IC50) was found to be 124 nM on EGFR S768I V774M; 32.4 nM on EGFR L858R T790M V843I; 74.4 nM at EGFR L858R/L792H; 211 nM at EGFR Ex19delT790M L718V; 153 nM at EGFR V774M; 248 nM at EGFR L858R G724S. Further, on EGFR Ex19del/T790M/L792H, the concentration for half-maximal inhibition (IC50) was found to be 37.4 nM.
